One compound from ChEMBL document CHEMBL1131041, “Synthesis, opioid receptor binding, and bioassay of naltrindole analogues substituted in the indolic benzene moiety” (J Med Chem, 1998) can be followed below.

The chains behind the UniProt entries cited, without tags or fusion partners.
UniProt P33535, whole entry: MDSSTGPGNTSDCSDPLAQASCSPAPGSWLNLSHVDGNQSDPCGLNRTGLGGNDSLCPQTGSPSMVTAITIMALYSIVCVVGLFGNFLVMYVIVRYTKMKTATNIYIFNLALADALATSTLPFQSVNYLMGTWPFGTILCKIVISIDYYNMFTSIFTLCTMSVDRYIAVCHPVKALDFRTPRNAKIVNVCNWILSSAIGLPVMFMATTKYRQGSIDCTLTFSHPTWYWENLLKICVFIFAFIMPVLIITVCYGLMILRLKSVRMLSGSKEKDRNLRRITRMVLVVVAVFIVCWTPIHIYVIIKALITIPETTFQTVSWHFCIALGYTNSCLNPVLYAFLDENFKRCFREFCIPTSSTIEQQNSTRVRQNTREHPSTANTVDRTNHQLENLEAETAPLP

This assay has as its target Mu-type opioid receptor (Rattus norvegicus, UniProt P33535). The assay is described as follows: Displacement of [3H]DAMGO from Opioid receptor mu 1 of rat brain membranes. In kind it is cell membranes, Membrane. In short, it runs like this:
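Rat brain membranes labelled with [3H]DAMGO. Incubation 4 h at 25 °C in 50 mM Tris-HCl pH 7.4 with protease inhibitor cocktail. Nonspecific binding defined with 20 μM levallorphan. 8–10 test concentrations, run twice; IC50 and slope factor derived.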
For orientation: In a radioligand displacement assay an active substance lowers the binding of a labelled ligand.

The term Ki denotes the equilibrium dissociation constant of an inhibitor or competing ligand from its target. A higher Ki goes with lower affinity. For `Oc1ccc2c3c1O[C@H]1c4[nH]c5ccccc5c4C[C@@]4(O)[C@@H](C2)N(CC2CC2)CC[C@]314` [NALTRINDOLE], the Ki stood at 50 nM.
